Assay results taken from PubChem BioAssay (Tox21).
The list shows a part of the results, in another mix than the full data. Records with an inconclusive call do not appear. Where a structure was tested more than once in an assay, its records may differ in their call. The source made the active and inactive calls. Unless noted, calls come from the whole dose curve; as a rule, active = well fitted curve in the direction sought with a large enough effect in the repeat runs; inconclusive = weak or mixed curves; inactive = no such curve, though single readings can be large; an effect the other way counts as inactive or inconclusive.

The chains behind the UniProt entries cited, without tags or fusion partners.
UniProt P04150, whole entry: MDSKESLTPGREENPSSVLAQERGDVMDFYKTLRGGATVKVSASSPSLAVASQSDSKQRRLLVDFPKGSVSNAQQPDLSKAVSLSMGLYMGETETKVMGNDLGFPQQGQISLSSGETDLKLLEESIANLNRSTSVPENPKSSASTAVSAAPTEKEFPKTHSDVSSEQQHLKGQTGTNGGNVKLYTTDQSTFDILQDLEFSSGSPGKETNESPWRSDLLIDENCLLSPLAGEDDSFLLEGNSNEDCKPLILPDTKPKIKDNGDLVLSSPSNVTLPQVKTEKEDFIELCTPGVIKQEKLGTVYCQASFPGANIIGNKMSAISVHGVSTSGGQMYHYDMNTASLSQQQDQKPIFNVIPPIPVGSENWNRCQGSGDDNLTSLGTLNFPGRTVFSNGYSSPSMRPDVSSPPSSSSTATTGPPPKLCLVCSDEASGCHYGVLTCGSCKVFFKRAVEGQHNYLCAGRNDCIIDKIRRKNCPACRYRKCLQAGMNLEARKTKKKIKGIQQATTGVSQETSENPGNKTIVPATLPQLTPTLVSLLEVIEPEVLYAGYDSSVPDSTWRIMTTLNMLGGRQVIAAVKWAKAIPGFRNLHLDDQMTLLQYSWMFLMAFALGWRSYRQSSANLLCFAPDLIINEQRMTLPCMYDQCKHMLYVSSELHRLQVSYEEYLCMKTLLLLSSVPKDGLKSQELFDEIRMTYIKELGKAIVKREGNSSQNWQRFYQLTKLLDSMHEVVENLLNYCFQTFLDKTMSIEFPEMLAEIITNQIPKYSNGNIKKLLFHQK

Assays:
[1] = qHTS assay for small molecules that induce genotoxicity in human embryonic kidney cells expressing luciferase-tagged ATAD5 - cell viability (AID 651634; calls by dose curve; note: % is set by controls: 0 for no effect and ±100 for the full control effect; nearly all actives have a fitted effect of over 25% in size); conditions: HEK293T ATAD5-luc cells viability, CellTiter-Fluor, 15.5 h
In short: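 Viability read: CellTiter-Fluor fluorescence, 30 min at 37C. Cells: HEK293T, luciferase-tagged ATAD5. Exposure: 15.5 hr, 37C, 5% CO2, compound or DMSO vehicle.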

[2] = qHTS assay for small molecule disruptors of the mitochondrial membrane potential - cell viability (AID 720634; calls by dose curve;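 note: human HepG2 liver cancer cells; % is set by controls: 0 for no effect and ±100 for the full control effect; nearly all actives have a fitted effect of over 20% in size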); conditions: HepG2 viability, ATP luminescence (CellTiter-Glo), 1 h; at 83.2 µM (top of the series)
In short: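 HepG2, 1 hr compound, 37 C. ATP luminescence via CellTiter-Glo, 30 min RT, same well as m-MPI.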

[3] = qHTS assay for small molecule disruptors of the mitochondrial membrane potential (AID 720635); conditions: HepG2 mitochondrial membrane potential, Mito-MPS dye ratio; series mostly up to 83.2 µM; note: potency is the fitted concentration of half-maximal effect
In short: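 Mitochondrial membrane potential tracked with Mito-MPS dye, red aggregates (ex 540/em 590 nm) against green monomers (ex 490/em 535 nm). Compound treatment 1 hr at 37C, dye 30 min in HepG2.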

[4] = qHTS assay to test for compound auto fluorescence at 590 nm (red) in HepG2 cells (AID 720674); conditions: HepG2 autofluorescence, red 540/590 nm, 1 h; note: % is set by controls: 0 for no effect and ±100 for the full control effect
In short: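 We screened compounds on adherent HepG2 cells, incubating them for an hour at 37 C in 5% CO2 before reading emission at 590 nm under 540 nm excitation; values reflect equivalence to Rose Bengal sodium fluorescence.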

[5] = qHTS assay to test for compound auto fluorescence at 535 nm (green) in HepG2 cells (AID 720675); conditions: green autofluorescence 485/535 nm, 1 h; note: % is set by controls: 0 for no effect and ±100 for the full control effect
[6] = qHTS assay to test for compound auto fluorescence at 460 nm (blue) in HEK293 cells (AID 720678); conditions: blue autofluorescence 405/460 nm; note: % is set by controls: 0 for no effect and ±100 for the full control effect
In short: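 Triamterene serves as the blue fluorophore standard. Compound signal at 405/460 nm is read in HEK293 wells (2,000 cells, 10% dialyzed FBS) after overnight treatment at 37C.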

[7] = qHTS assay to test for compound auto fluorescence at 590 nm (red) in HEK293 cells (AID 720679); conditions: red autofluorescence 540/590 nm; note: % is set by controls: 0 for no effect and ±100 for the full control effect
In short: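 We plated HEK293 cells in 10% dialyzed FBS medium, let them adhere for 4-5 hr, then added 23 nL compound. Overnight at 37C and 5% CO2 preceded fluorescence measurement at 540/590nm.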

[8] = qHTS assay to test for compound auto fluorescence at 535 nm (green) in HEK293 cells (AID 720680); conditions: green autofluorescence 485/535 nm; note: % is set by controls: 0 for no effect and ±100 for the full control effect
Description: U.S. Tox21 Program National Center for Advancing Translational Sciences [NCATS] NIH Chemical Genomics Center [NCGC] U.S. Environmental Protection Agency [EPA] National Institutes of Environmental Health Sciences [NIEHS] National Toxicology Program [NTP] U.S. Food and Drug Administration [FDA] Tox21 Assay Overview: Compound auto fluorescence often interferes with screening of the compound library against various biological targets and signaling pathways. Some of these compounds may have fluorophoric properties. Such properties may interfere with the assay outputs resulting in false positives and/or negatives. To decrease such complications and ensure the compound activities are relevant in terms of biological response, the Tox21 10K compound library was screened for auto fluorescence. From the fluorophores used as reporter signals in our screening assays, the auto fluorescence equivalencies of compounds against three fluorophores have been evaluated: Triamterene, Fluorescein and Rose Bengal sodium for blue, green and red fluorescence, respectively. The fluorescence intensities were measured using Excitation/Emission wavelengths at 405/460nm, 485/535nm and 540/590nm for blue, green and red labels, respectively. This assay includes the green fluorescence data.
Tox21 Assay Protocol Summary: 2,000 HEK293 cells in 5 uL of culture medium containing 10% dialyzed FBS per well were dispensed into black wall/clear bottom 1536-well plates using a Multidrop Combi Dispenser (Thermo Scientific). The assay plates were incubated for 4-5 hr at 37C to allow cell attachment to the well bottom, followed by the transfer of 23 nL compound or DMSO vehicle by a pintool work station (Kalypsys, San Diego, CA). After the assay plates were incubated overnight at 37C and 5% CO2, fluorescence intensities in the assay plates were measured by an Envision (PerkinElmer, Shelton, CT) plate reader using three labels for measuring blue, green and red fluorescence at […] 460, 535 and 590nm respectively.

[9] = qHTS assay to test for compound auto fluorescence at 460 nm (blue) in HEK293 cell free culture (AID 720681); conditions: cell-free medium, autofluorescence 405/460 nm (blue); note: % is set by controls: 0 for no effect and ±100 for the full control effect
In short: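 Blue fluorescence (Ex 405/Em 460 nm, triamterene-equivalent) was read immediately after pin transfer of compound or DMSO into medium (DMEM, 10% FBS) without cells.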

[10] = qHTS assay to test for compound auto fluorescence at 535 nm (green) in HEK293 cell free culture (AID 720682); conditions: cell-free medium, green autofluorescence 485/535 nm, stronger effect = higher value; note: % is set by controls: 0 for no effect and ±100 for the full control effect
In short: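 Green-channel intensity (Ex/Em 485/535 nm) was recorded from compound-treated wells containing only DMEM with 10% FBS. Fluorescein provided the equivalency standard.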

[11] = qHTS assay to test for compound auto fluorescence at 590 nm (red) in HEK293 cell free culture (AID 720683); conditions: cell-free medium autofluorescence, Ex540/Em590 red; note: % is set by controls: 0 for no effect and ±100 for the full control effect
In short: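 Red-channel autofluorescence of compounds in culture medium (DMEM, 10% FBS), no cells, measured at 540/590 nm. Rose Bengal sodium is the reference fluorophore for equivalence.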

[12] = qHTS assay to test for compound auto fluorescence at 590 nm (red) in HepG2 cell free culture (AID 720684); conditions: cell-free medium autofluorescence, red 540/590 nm; note: % is set by controls: 0 for no effect and ±100 for the full control effect
In short: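 Steps: dispense MEM/10% FBS medium, no cells; pin compound or DMSO vehicle; read red channel, Ex/Em 540/590 nm. Output given as Rose Bengal sodium equivalents.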

[13] = qHTS assay to test for compound auto fluorescence at 460 nm (blue) in HepG2 cell free culture (AID 720685); conditions: Cell-free culture medium, blue autofluorescence 405/460 nm; note: % is set by controls: 0 for no effect and ±100 for the full control effect
In short: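 Compound (23 nL) or DMSO pinned into cell-free MEM with 10% FBS; blue fluorescence read at 405/460 nm excitation/emission, expressed as auto-fluorescence equivalency to triamterene.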

[14] = qHTS assay to test for compound auto fluorescence at 535 nm (green) in HepG2 cell free culture (AID 720686); conditions: Cell-free medium, green autofluorescence 485/535 nm; note: % is set by controls: 0 for no effect and ±100 for the full control effect
[15] = qHTS assay to test for compound auto fluorescence at 460 nm (blue) in HepG2 cells (AID 720687); conditions: autofluorescence 405/460 nm, 1 h; note: % is set by controls: 0 for no effect and ±100 for the full control effect
In short: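 Blue-channel autofluorescence (Ex/Em 405/460 nm, triamterene-equivalent) was measured after 1 hr compound exposure at 37 C, 5% CO2. Cells were HepG2, plated overnight at 37 C in MEM plus 10% FBS.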

[16] = biological target: Glucocorticoid receptor (Homo sapiens) (UniProt P04150); experiment: qHTS assay to identify small molecule agonists of the glucocorticoid receptor (GR) signaling pathway (AID 720691; active = well fitted activation curve with a large enough effect in the signal ratio in the repeat runs, not every such curve was filed as active; the % refers to the signal ratio; note: % is set by controls: 0 for no effect and ±100 for the full control effect); conditions: GR-bla HeLa, beta-lactamase reporter ratio, 18 h
[17] = biological target: Glucocorticoid receptor (Homo sapiens) (UniProt P04150); experiment: qHTS assay to identify small molecule antagonists of the glucocorticoid receptor (GR) signaling pathway (AID 720692; active = well fitted inhibition curve with a large enough effect in the signal ratio in the repeat runs, not every such curve was filed as active; the % refers to the signal ratio; note: potency is the fitted concentration of half-maximal effect); conditions: GR-bla HeLa, beta-lactamase FRET ratio, dexamethasone-stimulated, 18 h; series mostly up to 58.5 µM
[18] = qHTS assay for small molecule agonists of the p53 signaling pathway - cell viability (AID 651633; calls by dose curve;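 note: p53RE-bla HCT reporter cells with a stable beta-lactamase p53 reporter; % is set by controls: 0 for no effect and ±100 for the full control effect; nearly all actives have a fitted effect of over 30% in size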); conditions: p53RE-bla HCT-116 viability, ATP luminescence, 16 h; at 83.3 µM (top of the series)
In short: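 Viability counter-read: CellTiter-Glo luminescence (30 min, room temperature) in the same p53RE-bla plates. These plates had been exposed to compounds for 16 h at 37 C.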

For `O=[N+]([O-])c1ccccc1[N+](=O)[O-]`, the activity, negative = cytotoxicity ([1]; at 83.3 µM (top of the series)) was inactive: -8.6%, the activity, negative = cytotoxicity ([1]; at 95.3 µM (top of the series)) was inactive: -20.8% and the activity change, negative = cytotoxicity [2] was inactive: -18.1%. For the same compound, the Potency [3] was active: 44.4 µM, the fluorescence, relative to Rose Bengal ([4]; at 91.3 µM (top of the series)) was inactive: 0.027% and the fluorescence, relative to Rose Bengal ([4]; at 95.7 µM (top of the series)) was inactive: -0.0216%. For the same compound, the fluorescence, % of fluorescein control ([5]; at 91.3 µM (top of the series)) was inactive: -0.0343%, the fluorescence, % of fluorescein control ([5]; at 95.7 µM (top of the series)) was inactive: -0.0218% and the fluorescence, % of triamterene ([6]; at 91.3 µM (top of the series)) was inactive: -0.169%. For the same compound, the fluorescence, % of triamterene ([6]; at 95.7 µM (top of the series)) was inactive: -0.0702%, the fluorescence, % of fluorescent control ([7]; at 91.3 µM (top of the series)) was inactive: -0.0503% and the fluorescence, % of fluorescent control ([7]; at 95.7 µM (top of the series)) was inactive: 0.141%. The fluorescence, % of fluorescein ([8]; at 91.3 µM (top of the series)) was inactive: 0.0167%, the fluorescence, % of fluorescein ([8]; at 95.7 µM (top of the series)) was inactive: -0.0095% and the fluorescence, % of fluorescent control ([9]; at 91.3 µM (top of the series)) was inactive: 0.0036%. For the same compound, the fluorescence, % of fluorescent control ([9]; at 95.7 µM (top of the series)) was inactive: -0.344%, the activity change ([10]; at 91.3 µM (top of the series)) was inactive: 0.146% and the activity change ([10]; at 95.7 µM (top of the series)) was inactive: 0.123%. For the same compound, the fluorescence, % of fluorescent control ([11]; at 91.3 µM (top of the series)) was inactive: -0.143%, the fluorescence, % of fluorescent control ([11]; at 95.7 µM (top of the series)) was inactive: -0.116% and the fluorescence, % of Rose Bengal ([12]; at 91.3 µM (top of the series)) was inactive: 0.0098%. For the same compound, the fluorescence, % of Rose Bengal ([12]; at 95.7 µM (top of the series)) was inactive: -0.0595%, the fluorescence, % of fluorescent control ([13]; at 91.3 µM (top of the series)) was inactive: 0.0461% and the fluorescence, % of fluorescent control ([13]; at 95.7 µM (top of the series)) was inactive: 0.12%. For the same compound, the fluorescence, % of fluorescein control ([14]; at 91.3 µM (top of the series)) was inactive: -0.0344%, the fluorescence, % of fluorescein control ([14]; at 95.7 µM (top of the series)) was inactive: 0.0367% and the fluorescence, % of fluorescent control ([15]; at 91.3 µM (top of the series)) was inactive: 0.0179%. For the same compound, the fluorescence, % of fluorescent control ([15]; at 95.7 µM (top of the series)) was inactive: -0.0901%, the activation ([16]; at 62.4 µM (top of the series)) was inactive: 0.123% and the activation ([16]; at 79.2 µM (top of the series)) was inactive: -13.3%. The Potency [17] was active: 44.8 µM and inactive.

For `CCOP(=S)(Cl)OCC`, the activity change, negative = cytotoxicity [18] was inactive: -22.5%, the activity, negative = cytotoxicity ([1]; at 83.3 µM (top of the series)) was inactive: -9.03% and the activity change, negative = cytotoxicity [2] was inactive: 14.8%. For the same compound, the Potency [3] was active: 26.9 µM, the fluorescence, relative to Rose Bengal ([4]; at 91.3 µM (top of the series)) was inactive: -0.0159% and the fluorescence, % of fluorescein control ([5]; at 91.3 µM (top of the series)) was inactive: -0.0163%. For the same compound, the fluorescence, % of triamterene ([6]; at 91.3 µM (top of the series)) was inactive: -0.23%, the fluorescence, % of fluorescent control ([7]; at 91.3 µM (top of the series)) was inactive: 0.406% and the fluorescence, % of fluorescein ([8]; at 91.3 µM (top of the series)) was inactive: 0.129%. The fluorescence, % of fluorescent control ([9]; at 91.3 µM (top of the series)) was inactive: -0.16%, the activity change ([10]; at 91.3 µM (top of the series)) was inactive: -0.111% and the fluorescence, % of fluorescent control ([11]; at 91.3 µM (top of the series)) was inactive: -0.291%. The fluorescence, % of Rose Bengal ([12]; at 91.3 µM (top of the series)) was inactive: -0.217%, the fluorescence, % of fluorescent control ([13]; at 91.3 µM (top of the series)) was inactive: -0.0897% and the fluorescence, % of fluorescein control ([14]; at 91.3 µM (top of the series)) was inactive: -0.0387%. For the same compound, the fluorescence, % of fluorescent control ([15]; at 91.3 µM (top of the series)) was inactive: 0.0259% and the activation ([16]; at 62.4 µM (top of the series)) was inactive: 0.181%.
